# Test results taken from ChEMBL document CHEMBL6074692, “Design, synthesis, and evaluation of novel benzofuran and pyrazole-based derivatives as dual AChE/BuChE inhibitors with antioxidant properties for Alzheimer's disease management” (Eur J Med Chem, 2025).
# The chains behind the UniProt entries cited, without tags or fusion partners.
# UniProt P06276, whole entry: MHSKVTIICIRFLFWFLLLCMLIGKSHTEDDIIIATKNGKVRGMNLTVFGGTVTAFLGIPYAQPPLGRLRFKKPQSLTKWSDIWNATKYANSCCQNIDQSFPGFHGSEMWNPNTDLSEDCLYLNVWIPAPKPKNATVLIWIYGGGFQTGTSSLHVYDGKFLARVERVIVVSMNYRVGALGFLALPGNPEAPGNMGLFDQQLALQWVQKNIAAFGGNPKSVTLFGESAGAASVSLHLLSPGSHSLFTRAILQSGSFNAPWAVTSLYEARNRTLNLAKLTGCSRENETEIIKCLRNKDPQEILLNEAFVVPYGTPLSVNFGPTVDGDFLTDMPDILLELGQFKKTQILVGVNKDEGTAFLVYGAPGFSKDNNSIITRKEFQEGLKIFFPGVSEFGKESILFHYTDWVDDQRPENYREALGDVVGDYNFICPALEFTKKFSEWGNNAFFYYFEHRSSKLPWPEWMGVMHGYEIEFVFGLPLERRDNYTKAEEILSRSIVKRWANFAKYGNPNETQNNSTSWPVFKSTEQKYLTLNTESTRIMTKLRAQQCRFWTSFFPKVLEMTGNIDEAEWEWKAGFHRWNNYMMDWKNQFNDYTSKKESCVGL
# Target: Cholinesterase (Homo sapiens, UniProt P06276)
# Assay: Inhibition of BuChE (unknown origin)
compound,measurement,value
CCN(C)C(=O)Oc1cccc([C@H](C)N(C)C)c1 [RIVASTIGMINE],IC50,11.6 µM
